Target: Casein kinase II (Homo sapiens, UniProt P19784+P67870+P68400)
Experiment: Inhibition of human recombinant CK2 expressed in Escherichia coli BL21(DE3) using RRRDDDSDDD as substrate after 15 mins by capillary electrophoretic analysis

Sequences of proteins named here, by UniProt entry; tags and fusion partners are left off.
UniProt P19784, whole entry: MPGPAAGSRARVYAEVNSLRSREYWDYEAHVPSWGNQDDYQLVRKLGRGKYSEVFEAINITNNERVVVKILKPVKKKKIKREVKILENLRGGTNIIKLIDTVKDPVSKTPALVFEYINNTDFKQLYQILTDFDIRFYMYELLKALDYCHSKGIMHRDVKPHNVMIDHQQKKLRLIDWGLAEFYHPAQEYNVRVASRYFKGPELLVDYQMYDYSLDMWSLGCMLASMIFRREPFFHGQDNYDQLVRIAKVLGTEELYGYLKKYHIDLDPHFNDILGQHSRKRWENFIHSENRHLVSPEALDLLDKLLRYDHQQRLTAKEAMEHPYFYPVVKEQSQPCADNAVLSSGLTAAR
UniProt P67870, whole entry: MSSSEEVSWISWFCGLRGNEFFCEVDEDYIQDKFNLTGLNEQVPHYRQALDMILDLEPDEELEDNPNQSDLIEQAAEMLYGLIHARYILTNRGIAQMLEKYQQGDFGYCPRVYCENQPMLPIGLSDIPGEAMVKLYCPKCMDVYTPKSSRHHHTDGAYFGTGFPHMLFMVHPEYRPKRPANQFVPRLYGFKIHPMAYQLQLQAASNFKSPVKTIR
UniProt P68400, whole entry: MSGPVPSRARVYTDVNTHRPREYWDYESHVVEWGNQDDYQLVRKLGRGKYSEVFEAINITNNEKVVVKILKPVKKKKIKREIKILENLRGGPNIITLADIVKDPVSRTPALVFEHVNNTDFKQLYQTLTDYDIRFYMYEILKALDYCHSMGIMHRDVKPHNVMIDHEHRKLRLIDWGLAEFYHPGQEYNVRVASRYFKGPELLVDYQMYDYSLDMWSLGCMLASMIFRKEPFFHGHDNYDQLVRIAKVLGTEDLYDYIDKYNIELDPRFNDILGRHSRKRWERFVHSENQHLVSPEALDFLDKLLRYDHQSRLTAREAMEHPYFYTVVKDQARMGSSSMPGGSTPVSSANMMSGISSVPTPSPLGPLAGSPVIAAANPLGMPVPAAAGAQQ

Cc1cc(O)c2c(c1)C(=O)c1cc(O)cc(O)c1C2=O [EMODIN]
IC50: 580 nM
